Assay results published in US20090029984A1 (priority 2005, published 2009).

Protein sequences, listed by entry. Tags and fused reporters are not part of them.
UniProt P21554, whole entry: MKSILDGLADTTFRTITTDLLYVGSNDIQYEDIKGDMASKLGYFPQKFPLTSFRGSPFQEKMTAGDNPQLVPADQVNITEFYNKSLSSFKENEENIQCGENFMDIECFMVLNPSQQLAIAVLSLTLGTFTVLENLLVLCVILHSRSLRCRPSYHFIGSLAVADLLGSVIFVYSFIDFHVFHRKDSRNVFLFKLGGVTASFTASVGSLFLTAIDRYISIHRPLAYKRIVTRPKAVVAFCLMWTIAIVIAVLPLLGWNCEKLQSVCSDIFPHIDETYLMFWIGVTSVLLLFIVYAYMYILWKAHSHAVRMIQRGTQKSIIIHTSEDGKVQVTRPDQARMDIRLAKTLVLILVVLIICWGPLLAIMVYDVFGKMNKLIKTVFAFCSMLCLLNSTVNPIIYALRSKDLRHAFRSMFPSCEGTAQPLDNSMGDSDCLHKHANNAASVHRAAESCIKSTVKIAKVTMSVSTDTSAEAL

Target: human CB1 receptor (Homo sapiens, UniProt P21554)
Experiment: cell-based
Conditions: for Emax: CHO, read-out: efficacy (maximal response)

CCOC(=O)c1c(C)cc2nc(COC(=O)NCCO)n(-c3ccccc3S(=O)(=O)NC)c(=O)c2c1C [Compound 1a, 2-(2-Hydroxy-ethylcarbamoyloxymethyl)-5,7-dimethyl-3-(2-methylsulfamoylphenyl)-4-oxo-3,4-dihydro-quinazoline-6-carboxylic acid ethyl ester]
EC50: 94 nM | Emax: 67%

Cl.O=C(NCCO)[C@H]1CCCN(Cc2nc(-c3cn(CC4CCS(=O)(=O)CC4)c4c(Cl)cccc34)ns2)C1 [Compound 2, (S)-7-Chloro-3-[(5-{[3-N-(2-hydroxyethyl)carboxamido]piperidin-1-yl}methyl)([1,2,4]-thiadiazol-3-yl)]-1-(1,1-dioxo-hexahydrothiopyran-4-yl)methyl-1H-indole, hydrochloride salt]
EC50: 23 nM | Emax: 42%
